Source: ChEMBL document CHEMBL4823270, “A first-in-class anticancer dual HDAC2/FAK inhibitors bearing hydroxamates/benzamides capped by pyridinyl-1,2,4-triazoles” (Eur J Med Chem, 2021)

System: CAKI-1
Assay: Growth inhibition of human CAKI-1 cells at 10 uM incubated for 24 hrs by MTT assay relative to control
Format: functional
Conditions: read-out: GI
Summary of the method: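 Cells seeded at 1 × 10^4 per well, cultured overnight, then exposed to 10 μM compound or DMSO (negative control) for 24 h. After a PBS wash, MTT (2 mg/ml) was added for 4 h at 37°C and formazan dissolved in DMSO. OD read at 570 nm. Growth inhibition = 1 − (OD treated/OD control); at least three independent experiments.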

**Q.** `O=C(CCCCCSc1nnc(-c2ccncc2)n1-c1ccccc1)NO` was tested. Which inhibition of growth at 10 µM did it give?
**A.** 7.68%
